Assay results as given in ChEMBL document CHEMBL3352041, “Design, synthesis, and biological evaluation of scaffold-based tripeptidomimetic antagonists for CXC chemokine receptor 4 (CXCR4)” (Bioorg Med Chem, 2014).

Sequences of proteins named here, by UniProt entry; tags and fusion partners are left off.
UniProt P61073, whole entry: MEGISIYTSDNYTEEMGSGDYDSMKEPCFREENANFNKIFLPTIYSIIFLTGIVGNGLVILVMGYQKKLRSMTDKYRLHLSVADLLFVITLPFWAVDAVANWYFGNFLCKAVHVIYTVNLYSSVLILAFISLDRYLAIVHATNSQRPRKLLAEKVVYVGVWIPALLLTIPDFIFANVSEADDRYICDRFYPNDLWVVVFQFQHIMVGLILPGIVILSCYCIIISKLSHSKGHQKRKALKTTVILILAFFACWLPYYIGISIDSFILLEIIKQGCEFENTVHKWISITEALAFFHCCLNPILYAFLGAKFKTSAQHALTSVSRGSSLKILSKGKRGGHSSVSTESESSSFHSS

What was measured:
[1] = biological target: T1, C-X-C chemokine receptor type 4 (Homo sapiens, UniProt P61073); experiment: Inhibition of CXCR4 (unknown origin)
[2] = biological target: T1, C-X-C chemokine receptor type 4; experiment: Antagonist activity at human CXCR4 expressed in COS7 cells assessed as inhibition of [3H]inositol-phosphates formation after 90 mins by scintillation proximity-based functional assay; type: cell-based, COS-7
Method in brief: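 Human CXCR4 cDNA and the Gαi-to-Gαq chimera Gα∆6qi4myr were transiently co-transfected into COS-7 cells by calcium phosphate. Cells were labelled 24 h with [3H]-myo-inositol (2 µCi/mL), then exposed to graded ligand concentrations for 90 min at 37 °C in HBSS with 10 mM LiCl. Cells were lysed with 10 mM formic acid, and [3H]IPs were counted on SPA beads after 8 h. Duplicates; mean of ≥3 experiments.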

**Q.** Which IC50 [1] does the source give for `N=C(N)NCCC[C@@H]1NC(=O)[C@@H](CCCNC(=N)N)NC(=O)[C@@H](Cc2ccc(O)cc2)NC(=O)CNC(=O)[C@H](Cc2ccc3ccccc3c2)NC1=O` here?
**A.** Its IC50 is 8 nM.

**Q.** And the EC50 [2]?
**A.** Its EC50 is 520 nM.
